In BindingDB's records for doi:10.1021/jm100555f (Harvard Medical School, 2010):

Assay: Inhibition of Bcr-Abl in mouse BA/F3 cells

| Compound | EC50 |
| --- | --- |
| FC(F)(F)Oc1ccc(Nc2cc(-c3cnn(Cc4cccnc4)c3)ncn2)cc1 [6-(1-(pyridin-3-ylmethyl)-1H-pyrazol-4-yl)-N-(4-(trifluoromethoxy)phenyl)pyrimidin-4-amine] | 400 nM |
| COc1ccc(Cn2ccc3c(Nc4ccc(OC(F)(F)F)cc4)ncnc32)cc1 [7-(4-methoxybenzyl)-N-(4-(trifluoromethoxy)phenyl)-7H-pyrrolo[2,3-d]pyrimidin-4-amine] | 9680 nM |
| OCc1cc2c(Nc3ccc(OC(F)(F)F)cc3)ncnc2s1 [(4-(4-(trifluoromethoxy)phenylamino)thieno[2,3-d]pyrimidin-6-yl)methanol] | 330 nM |
| O=C(c1cc2c(Nc3ccc(OC(F)(F)F)cc3)ncnc2s1)N1CCN(N2CCCC2)CC1 [(4-(pyrrolidin-1-yl)piperazin-1-yl)(4-(4-(trifluoromethoxy)phenylamino)thieno[2,3-d]pyrimidin-6-yl)methanone] | 1340 nM |
| O=C(c1cc2c(Nc3ccc(OC(F)(F)F)cc3)ncnc2s1)N1CCNCC1 [piperazin-1-yl(4-(4-(trifluoromethoxy)phenylamino)thieno[2,3-d]pyrimidin-6-yl)methanone] | 406 nM |
